The source of these data is ChEMBL document CHEMBL1811777, “Rational design of potent, small, synthetic allosteric inhibitors of thrombin” (J Med Chem, 2011).

In the assay the target is Prothrombin (Homo sapiens, UniProt P00734). The assay is described as follows: Inhibition of human alpha-thrombin assessed as spectrozyme TH hydrolysis after 10 mins by spectrophotometric analysis. Summed up:
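Human α-thrombin (~5 nM initial) preincubated 10 min with inhibitor (4 μg/ml to 5 mg/ml stocks) at 25 °C. Buffer: 20 mM Tris-HCl pH 7.4, 100 mM NaCl, 2.5 mM CaCl2, 0.1% PEG 8000. 20 μL of 1 mM Spectrozyme TH then added; initial rate read at 405 nm. Fractional residual activity fitted to logistic equation (Hill slope fixed at 1) for IC50 and efficacy ΔY.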

What is called IC50 is the concentration at which inhibition is half-maximal.

With `CCOC(=O)c1c(C)oc2cc(OCc3oc4cc(OC)c(OS(=O)(=O)O)cc4c3C(=O)OCC)c(OC)cc12`, the IC50 was found to be 89 µM.
